The text below walks through data of US5494917A, “Cognition enhancing quinuclidine compound” (Kanegafuchi Kagaku Kogyo Kabushiki Kaisha, priority 1993, dated 1996).

This test has as its system experimental amnesia in rat induced by lesioning basal forebrain (BF). Description: Anti-amnesic effect: step-through passive avoidance, amnesia induced by BF lesion (ibotenic acid). The class given is in vivo, Wistar male rat. Particulars: 30 minutes before aquisition trial, retention after 24 hours, max 300 s. The procedure: As experimental animals, Wistar male rats and ddY male mice were used for the experiments after they were housed for a week under every 12 hours'dark-light cycle at room temperature of 24° to 26° C.
The effect on experimental amnesia in rat induced by lesioning basal forebrain (BF) was evaluated.
The experiment was carried out using an experimental apparatus of step-through type passive avoidance task for rat (made by Ohara-ika-sangyoK.K. ) comprising two compartments of dark and light. That is, the dark compartment (height: 200 cm, width: 150 cm, length: 200 cm) was a black plastic box and was floored with stainless grids for giving an electrical shock so that an electricity might be turned on a determined time after interception of a photobeam placed in the dark compartment. The light compartment made of transparent plastic (height: 200 cm, width: 250 cm, length: 200 cm) was provided adjacent to the dark compartment and was lightened from a location spaced 25 cm above by a 60 W electric lamp. Between the two compartments, there was provided an entrance with a guillotine door which could be opened and closed, and when the guillotine door was opened, a rat could freely move from one compartment to another.
Amnesia was induced by BF lesion. Among presently known methods for inducing amnesia, this method is considered to provide an animal model having the most similar pathology to Alzheimer's disease. […]
Anti-amnesic effect was evaluated according to the following procedure.
A Wistar male rat (9 week-old) previously conditioned in the dark-light box was put in the light compartment and the guillotine door was opened. […] After 24 hours, retention trial was carried out in the same manner as in the aquisition trial, and latency, a period until the animal put in the light compartment entered the dark compartment, was measured maximally 300 seconds. […]

In the case of `CC1OC2(CS1)CN1CCC2CC1` (stereo not drawn) [AF102B, cis-2-methylspiro(1,3-oxathiolane-5,3') quinuclidine, reference compound], the Latency reads like this: (0.1 mg/kg p.o.) 76 s; (1.0 mg/kg p.o.) 154 s; (10 mg/kg p.o.) 78 s.
